Measurements published in ChEMBL document CHEMBL4706521, “Synthesis of indole inhibitors of silent information regulator 1 (SIRT1), and their evaluation as cytotoxic agents” (Eur J Med Chem, 2020).

Target: T1, NAD-dependent protein deacetylase sirtuin-2 (Homo sapiens) (UniProt Q8IXJ6)
T1 sequence (whole entry): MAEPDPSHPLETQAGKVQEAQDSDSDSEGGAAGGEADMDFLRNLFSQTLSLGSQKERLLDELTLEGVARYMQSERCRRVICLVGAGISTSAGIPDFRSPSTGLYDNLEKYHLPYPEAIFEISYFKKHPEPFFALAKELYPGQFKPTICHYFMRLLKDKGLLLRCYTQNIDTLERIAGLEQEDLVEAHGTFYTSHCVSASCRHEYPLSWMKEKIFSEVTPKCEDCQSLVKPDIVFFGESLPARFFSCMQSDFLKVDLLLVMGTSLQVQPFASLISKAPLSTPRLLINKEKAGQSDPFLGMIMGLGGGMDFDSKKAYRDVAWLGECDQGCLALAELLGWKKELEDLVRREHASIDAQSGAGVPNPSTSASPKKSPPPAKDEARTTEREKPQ
Experiment: Inhibition of recombinant human SIRT2 expressed in baculovirus infected SF9 cells expression system using RHKK(Ac)W-NH2 as substrate at 100 uM measured after 20 mins by HPLC method

- inhibition: 54%
SMILES: CC(C)c1c(CC(N)=O)[nH]c2ccc(Cl)cc12
